Results from ChEMBL document CHEMBL1130764, “Synthesis of a potent wide-spectrum serotonin-, norepinephrine-, dopamine-reuptake inhibitor (SNDRI) and a species-selective dopamine-reuptake inhibitor based on the gamma-amino alcohol functional group” (Bioorg Med Chem Lett, 1998).

Chains of the proteins cited; added tags and fusions are not shown.
UniProt P31652, whole entry: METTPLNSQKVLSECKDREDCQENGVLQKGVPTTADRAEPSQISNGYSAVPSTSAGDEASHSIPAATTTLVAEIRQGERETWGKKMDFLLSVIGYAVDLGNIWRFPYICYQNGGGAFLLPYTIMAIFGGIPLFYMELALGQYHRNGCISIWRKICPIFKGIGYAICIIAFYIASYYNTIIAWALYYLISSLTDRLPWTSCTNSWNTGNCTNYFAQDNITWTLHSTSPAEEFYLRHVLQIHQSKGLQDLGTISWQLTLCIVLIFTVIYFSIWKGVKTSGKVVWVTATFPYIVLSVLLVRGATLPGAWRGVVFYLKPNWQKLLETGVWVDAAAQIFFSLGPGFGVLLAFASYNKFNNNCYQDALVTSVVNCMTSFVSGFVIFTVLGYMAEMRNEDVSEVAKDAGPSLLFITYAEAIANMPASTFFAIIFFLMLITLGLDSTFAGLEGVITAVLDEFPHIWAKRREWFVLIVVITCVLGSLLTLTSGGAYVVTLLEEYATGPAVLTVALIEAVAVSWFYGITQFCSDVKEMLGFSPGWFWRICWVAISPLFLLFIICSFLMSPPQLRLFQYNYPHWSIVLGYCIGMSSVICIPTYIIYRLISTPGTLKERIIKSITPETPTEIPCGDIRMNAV
UniProt P23977, whole entry: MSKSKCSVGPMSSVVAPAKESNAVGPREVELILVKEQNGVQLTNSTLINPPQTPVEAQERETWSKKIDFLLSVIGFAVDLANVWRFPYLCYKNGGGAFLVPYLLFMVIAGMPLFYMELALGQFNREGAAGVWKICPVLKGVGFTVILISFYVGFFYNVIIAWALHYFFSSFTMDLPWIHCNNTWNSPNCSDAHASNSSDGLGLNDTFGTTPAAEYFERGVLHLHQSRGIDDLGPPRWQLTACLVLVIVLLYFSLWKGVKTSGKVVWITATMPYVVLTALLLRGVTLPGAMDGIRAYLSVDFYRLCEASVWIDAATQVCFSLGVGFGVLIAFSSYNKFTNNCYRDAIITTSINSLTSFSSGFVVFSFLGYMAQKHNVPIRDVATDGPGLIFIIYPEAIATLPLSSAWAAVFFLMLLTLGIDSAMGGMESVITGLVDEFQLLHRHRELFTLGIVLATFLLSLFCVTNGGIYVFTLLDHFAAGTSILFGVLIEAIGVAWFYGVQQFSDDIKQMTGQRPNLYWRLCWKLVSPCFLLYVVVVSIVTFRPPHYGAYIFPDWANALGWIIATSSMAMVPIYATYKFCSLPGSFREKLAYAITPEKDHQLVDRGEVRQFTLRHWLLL

Columns and labels:
[1] = target: Sodium-dependent serotonin transporter (Rattus norvegicus, UniProt P31652); assay: Inhibition of [3H]5-HT reuptake into rat frontal cortex synaptosomes; type: subcellular, Brain
[2] = target: Sodium-dependent dopamine transporter (Rattus norvegicus, UniProt P23977); assay: Inhibition of [3H]- DA reuptake into rat striatal synaptosomes; type: subcellular, Brain

Fc1ccc([C@@H]2CCNC[C@H]2COc2ccc3c(c2)OCO3)cc1 [PAROXETINE]
Ki [1]: 0.00073 µM
Ki [2]: 1.7 µM
